Yeast mating assay 2: variants of the scFv Ab-95

Data: MIT Lincoln Laboratory AlphaSeq set, Engelhart et al. 2022, doi:10.1038/s41597-022-01779-4, as distributed in FLAb.

Target: peptide PDVDLGDISGINAS, taken from heptad repeat 2 (HR2) of SARS-CoV-2 spike.

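The starting antibody came from a phage panning campaign against this peptide. AAYL52 was designed without a model: most single CDR substitutions and a random sample of double and triple ones. AlphaSeq pools MATa yeast showing the antibodies with MATalpha yeast showing the peptide. Pairs that bind mate more often; barcode pairs of the diploids are counted by sequencing. The ratio of observed to expected reads was calibrated, replicate by replicate, on BCL2-family standards whose Kd was known from biolayer interferometry. There are three technical replicates.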

Ab-95 is the parent antibody, in scFv form: VH, then the linker GGGGSGGGGSGGGGS, then VL. The heavy chain is unchanged in all variants.
VH: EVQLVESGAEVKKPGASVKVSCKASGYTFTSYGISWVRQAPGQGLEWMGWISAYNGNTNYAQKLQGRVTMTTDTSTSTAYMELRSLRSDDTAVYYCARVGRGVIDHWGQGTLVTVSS
VL: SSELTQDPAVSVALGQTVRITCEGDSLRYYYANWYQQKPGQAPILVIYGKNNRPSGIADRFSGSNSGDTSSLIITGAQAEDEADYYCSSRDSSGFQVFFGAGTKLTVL

The parent's light chain CDRs are EGDSLRYYYAN, GKNNRPS, SSRDSSGFQVF; each variant's own CDRs replace them letter for letter.
Scale: log10 of Kd in nM, estimated from mating counts; low values are strong binders.
Averages over replicates are reported, and they cover detected replicates only.
An entry "ND" has no value in the source: the pair was not observed among the diploids in that replicate. This suggests poor binding but is not conclusive.
Empty control strains, which show no peptide, gave a signal in 28% of pairings with library AAYL52; the median was 3.91 and 95% of these signals were weaker than 2.90. No background was subtracted. For each scFv, signals with the empty controls are counted beside the result, with their mean in brackets.
In this assay the parent's reference entry averaged 2.31; its copy inside this library read 2.25.

| CDR-L1 | CDR-L2 | CDR-L3 | log10 Kd (nM) by replicate | mean log10 Kd (nM) | control signals |
|---|---|---|---|---|---|
| PGDSCRYYYAN | GKNNRPS | SSRDSSGFQVF | 3.86 / 4.71 / ND | 4.28 | 4 of 9 (3.69) |
| EGDSLRYYYAN | GKNNRPM | ASRDSSPFQVF | ND / ND / ND | ND | 2 of 9 (4.34) |
| EGDSLRYYYAN | GKNNRPL | SSRDASGFQVF | 2.96 / 2.32 / 2.58 | 2.62 | 4 of 9 (3.86) |
| EGDSLRYYYAN | GKNNRPS | VSRDSSGFQVF | 3.90 / 4.17 / 3.25 | 3.77 | 0 of 9 |
| EGDSLRYYYAN | GHNNRPS | SSRDSSGLQPF | 2.44 / 3.02 / 3.48 | 2.98 | 1 of 9 (3.00) |
| EGDSLRYYYAN | GKCNRPS | GSRDSSGFHVF | ND / 3.24 / 3.51 | 3.38 | 4 of 9 (3.91) |
| EHDSLRYYYAN | GKNNRPS | SSRDSGGFQCF | 3.02 / 3.68 / 3.61 | 3.43 | 4 of 9 (3.81) |
| EGDTLRYYYAN | GKNNRPV | SSRDSSGFQVM | 4.37 / 4.75 / ND | 4.56 | 0 of 9 |
| EGDSLRYYYAN | GDNNRAS | SSRDSSGFRVF | 2.00 / 1.83 / 1.77 | 1.86 | 3 of 9 (4.12) |
| EGDSLRYYYAN | GKNNRPS | SSRDSSGMQVF | 2.24 / 2.56 / 2.66 | 2.49 | 0 of 9 |
| EGDSLRYYYAN | GKNNRPS | GSRKSSGFQVF | 4.22 / 4.31 / ND | 4.26 | 2 of 9 (4.35) |
| CYDSLRYYYAN | GKNNRPS | SSRDSSGFQVF | 3.83 / ND / 4.48 | 4.16 | 5 of 9 (3.89) |
| EGRSLRYYYAN | GKNNRPS | STLDSSGFQVF | ND / ND / ND | ND | 0 of 9 |
| EGDSLGYYGYN | GKNNRPS | SSRDSSGFQVF | 1.21 / 1.16 / 0.63 | 1.00 | 4 of 9 (4.83) |
| EGDSLRYYYAN | GKNNRPS | SQRLSSGFKVF | ND / ND / ND | ND | 1 of 9 (3.24) |
| LGDSLRYYYAN | GKFNRPS | PSRDSSGFQVF | ND / ND / ND | ND | 4 of 9 (4.39) |
| EGDSLRYVYAN | GKNNDPE | SSRDSSGFQVF | 4.08 / ND / ND | 4.08 | 5 of 9 (3.71) |
| EGDSLRYQYAN | GKNNKPS | SSRDISGFQVF | 0.97 / 0.83 / 0.39 | 0.73 | 2 of 9 (3.65) |
| EGDSKRYYYAN | GKNNRPS | SSIDSSGFQVT | ND / ND / ND | ND | 1 of 9 (2.75) |
| EGDLLRYYYAN | GKHNRPF | SSRDSSGFQVF | ND / 4.61 / ND | 4.61 | 5 of 9 (3.57) |
| NGDSLRYRYAN | GKNNSPS | SSRDSSGFQVF | 2.17 / 1.91 / 1.53 | 1.87 | 1 of 9 (4.24) |
| EGDSLAYYYAN | MKNCRPS | SSRDSSGFQVF | 3.43 / 4.12 / ND | 3.78 | 3 of 9 (3.73) |
| PGVSLRYYYAN | GKNNRPS | SSEDSSGFQVF | 1.29 / 1.55 / 1.13 | 1.32 | 0 of 9 |
| EGDTLRYYYHN | GKNNRPY | SSRDSSGFQVF | 4.19 / 3.72 / ND | 3.95 | 3 of 9 (4.36) |
| EGDSLRYYYAN | GKNNDHS | SSRDSRGFQVF | 3.49 / ND / 4.56 | 4.02 | 2 of 9 (3.75) |
| EGDSLRYYDAN | GKNHRPR | SSRDSSGFQVF | 1.96 / 1.65 / 1.57 | 1.73 | 4 of 9 (4.07) |
| EGDSLRYYYAN | GKNNPPF | MSRDSSGFQVF | 4.02 / 3.51 / ND | 3.77 | 1 of 9 (3.25) |
| EGDSLRKLYAN | GKNNRPS | SSRDSSNFQVF | 2.34 / 2.81 / 2.24 | 2.46 | 6 of 9 (3.61) |
| EGDSLRYYYAN | MKNNRPS | SCRRSSGFQVF | ND / 3.92 / ND | 3.92 | 2 of 9 (4.16) |
| EGCSLRYTYAN | GKNNRPS | SNRDSSGFQVF | 3.65 / ND / 3.97 | 3.81 | 2 of 9 (4.19) |
| EKDSLRLYYAN | GKNNRPS | SSRDSSGFQVV | ND / 5.12 / ND | 5.12 | 2 of 9 (3.78) |
| EGDSLRYYYAN | FKNDRPS | SSRDSSDFQVF | ND / ND / ND | ND | 1 of 9 (3.85) |

The first 2 entries again:

CDR-L1	CDR-L2	CDR-L3	log10 Kd (nM) by replicate	mean log10 Kd (nM)	control signals
PGDSCRYYYAN	GKNNRPS	SSRDSSGFQVF	3.86 / 4.71 / ND	4.28	4 of 9 (3.69)
EGDSLRYYYAN	GKNNRPM	ASRDSSPFQVF	ND / ND / ND	ND	2 of 9 (4.34)